Source: patent US20250353852A1, “COMPOUNDS AND COMPOSITIONS THAT INHIBIT PIKFYVE” (Kineta, Inc., priority 2021, published 2025)

The chains behind the UniProt entries cited, without tags or fusion partners.
UniProt Q9Y2I7, whole entry S696N/L932S/Q995L/T998S/S1033A/Q1183K: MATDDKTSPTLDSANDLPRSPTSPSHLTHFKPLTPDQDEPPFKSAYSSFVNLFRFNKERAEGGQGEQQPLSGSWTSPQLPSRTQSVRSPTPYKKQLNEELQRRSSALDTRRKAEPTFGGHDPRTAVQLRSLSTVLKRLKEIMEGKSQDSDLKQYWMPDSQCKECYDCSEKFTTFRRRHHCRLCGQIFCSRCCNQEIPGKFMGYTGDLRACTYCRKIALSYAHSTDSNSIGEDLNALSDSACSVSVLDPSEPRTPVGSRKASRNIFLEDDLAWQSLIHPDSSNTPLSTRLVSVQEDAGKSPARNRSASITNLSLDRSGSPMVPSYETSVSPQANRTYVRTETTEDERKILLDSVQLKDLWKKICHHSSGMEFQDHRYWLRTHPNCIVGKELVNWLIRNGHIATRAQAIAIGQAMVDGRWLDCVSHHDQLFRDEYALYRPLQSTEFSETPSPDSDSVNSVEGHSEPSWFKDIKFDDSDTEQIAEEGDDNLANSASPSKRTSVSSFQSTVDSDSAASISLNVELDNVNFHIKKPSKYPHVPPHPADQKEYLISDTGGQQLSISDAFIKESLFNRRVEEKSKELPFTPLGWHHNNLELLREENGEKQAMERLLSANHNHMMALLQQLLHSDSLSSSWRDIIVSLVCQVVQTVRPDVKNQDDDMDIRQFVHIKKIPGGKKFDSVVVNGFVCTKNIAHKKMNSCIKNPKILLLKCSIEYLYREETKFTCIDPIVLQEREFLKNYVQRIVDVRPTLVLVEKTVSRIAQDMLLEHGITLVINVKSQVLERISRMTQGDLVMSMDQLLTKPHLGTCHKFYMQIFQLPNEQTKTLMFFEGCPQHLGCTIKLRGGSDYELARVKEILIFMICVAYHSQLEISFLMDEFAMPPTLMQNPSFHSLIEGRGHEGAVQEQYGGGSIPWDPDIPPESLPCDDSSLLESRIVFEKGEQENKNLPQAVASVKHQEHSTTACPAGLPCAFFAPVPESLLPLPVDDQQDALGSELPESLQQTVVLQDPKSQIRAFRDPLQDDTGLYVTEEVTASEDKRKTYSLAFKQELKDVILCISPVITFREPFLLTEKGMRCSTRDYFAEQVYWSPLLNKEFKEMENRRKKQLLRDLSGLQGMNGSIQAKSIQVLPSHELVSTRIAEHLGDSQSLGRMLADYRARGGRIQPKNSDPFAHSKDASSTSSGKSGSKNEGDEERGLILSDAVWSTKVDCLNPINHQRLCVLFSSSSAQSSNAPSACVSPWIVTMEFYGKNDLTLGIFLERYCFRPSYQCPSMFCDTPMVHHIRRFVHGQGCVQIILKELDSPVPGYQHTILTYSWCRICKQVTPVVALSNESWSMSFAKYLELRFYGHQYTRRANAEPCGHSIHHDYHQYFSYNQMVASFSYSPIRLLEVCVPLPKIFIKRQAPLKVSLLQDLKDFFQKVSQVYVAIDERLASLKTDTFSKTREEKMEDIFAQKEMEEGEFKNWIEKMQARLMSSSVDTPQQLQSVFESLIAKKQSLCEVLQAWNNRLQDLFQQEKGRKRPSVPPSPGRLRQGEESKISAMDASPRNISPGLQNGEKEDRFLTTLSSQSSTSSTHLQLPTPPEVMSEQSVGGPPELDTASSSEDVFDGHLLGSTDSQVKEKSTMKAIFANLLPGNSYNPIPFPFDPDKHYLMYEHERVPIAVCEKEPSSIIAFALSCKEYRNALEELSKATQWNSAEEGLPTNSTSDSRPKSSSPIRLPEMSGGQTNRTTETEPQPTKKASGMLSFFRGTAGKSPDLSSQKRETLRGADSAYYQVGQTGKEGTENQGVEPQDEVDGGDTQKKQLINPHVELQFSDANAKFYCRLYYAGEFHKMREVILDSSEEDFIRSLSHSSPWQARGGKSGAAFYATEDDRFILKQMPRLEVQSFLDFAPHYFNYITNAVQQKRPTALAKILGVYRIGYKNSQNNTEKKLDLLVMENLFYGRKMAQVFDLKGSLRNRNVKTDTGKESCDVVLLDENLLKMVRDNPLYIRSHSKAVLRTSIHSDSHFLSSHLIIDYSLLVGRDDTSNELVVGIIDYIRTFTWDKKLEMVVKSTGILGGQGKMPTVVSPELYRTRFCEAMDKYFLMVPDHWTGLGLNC

Target: full-length human PIKFYVE (Homo sapiens (Human), UniProt Q9Y2I7, L932S/Q1183K/Q995L/S1033A/S696N/T998S)
Assay: PIKfyve biochemical assay (ADP-Glo Kinase assay, Carna Biosciences)
Details: read-out: PIKFyve IC50; class symbols

c1cc(-c2cc3nc(-n4ncc5c4COCC5)cc(N4CCOCC4)n3n2)ccn1
IC50: 100 to 1000 nM
